Source: patent US11737461B2, “Citrate perhydrates and uses thereof” (BIOREM ENGINEERING SA, priority 2018, dated 2023)
Like-named read-outs stand apart in the source and are kept apart here.

Assays:
[1] = system: Staphylococcus aureus MRSA
[2] = system: Staphylococcus aureus MRSA; experiment: microbe, parasite or virus in culture

SMILES	MIC % [1] [%]	MIC ([2]; read-out: MIC value) [µg/mL]	MIC ([2]; read-out: MIC mM) [mM]	MIC value [1] [µg/mL]
CCO [Ethanol]	8.750	87500	–	–
OO [Hydrogen peroxide]	0.094	940	27.6	–
O=C([O-])CC(O)(CC(=O)[O-])C(=O)[O-].[Na+].[Na+].[Na+] [Sodium citrate]	0.320	–	–	3200
